# Assay results: US20160024487
# Experiments:
# [1] = tested on: Lys(Dnp)-ATNATX4X3PRIVGG-Lys(Abz), X4 = N, X3 = Q
# [2] = tested on: Lys(Dnp)-ATNATX4X3PRIVGG-Lys(Abz), X4 = A, X3 = E
# [3] = tested on: Lys(Dnp)-ATNATDPPRIVGG-Lys(Abz)
# [4] = tested on: Lys(Dnp)-ATNATMNPRIVGG-Lys(Abz)
# [5] = tested on: Lys(Dnp)-ATNATMVPRIVGG-Lys(Abz)
# [6] = tested on: Lys(Dnp)-ATNATAKPRIVGG-Lys(Abz)
# [7] = tested on: Lys(Dnp)-ATNATPMPRIVGG-Lys(Abz)
# [8] = tested on: Lys(Dnp)-ATNATX4X3PRIVGG-Lys(Abz), X4 = V, X3 = D
# [9] = tested on: Lys(Dnp)-ATNATKPPRIVGG-Lys(Abz)
# [10] = tested on: Lys(Dnp)-ATNATTHPRIVGG-Lys(Abz)
# [11] = tested on: Lys(Dnp)-ATNATLKPRIVGG-Lys(Abz)
# [12] = tested on: Lys(Dnp)-ATNATHWPRIVGG-Lys(Abz)
# [13] = tested on: Lys(Dnp)-ATNATWDPRIVGG-Lys(Abz)
# [14] = tested on: Lys(Dnp)-ATNATVWPRIVGG-Lys(Abz)
# [15] = tested on: Lys(Dnp)-ATNATQMPRIVGG-Lys(Abz)
# [16] = tested on: Lys(Dnp)-ATNATIWPRIVGG-Lys(Abz)
# [17] = tested on: Lys(Dnp)-ATNATFFPRIVGG-Lys(Abz)
# [18] = tested on: Lys(Dnp)-ATNATQRPRIVGG-Lys(Abz)
# [19] = tested on: Lys(Dnp)-KATNATLDPRIVGG-Lys(Abz)
# [20] = tested on: Lys(Dnp)-ATNATX4X3PRIVGG-Lys(Abz), X4 = Q, X3 = V
# [21] = tested on: Lys(Dnp)-ATNATFWPRIVGG-Lys(Abz)
# [22] = tested on: Lys(Dnp)-ATNATX4X3PRIVGG-Lys(Abz), X4 = G, X3 = R
# [23] = tested on: Lys(Dnp)-ATNATX4X3PRIVGG-Lys(Abz), X4 = H, X3 = Y
# [24] = tested on: Lys(Dnp)-ATNATYFPRIVGG-Lys(Abz)
# [25] = tested on: Lys(Dnp)-ATNATIGPRIVGG-Lys(Abz)
# [26] = tested on: Lys(Dnp)-ATNATGWPRIVGG-Lys(Abz)
# [27] = tested on: Lys(Dnp)-ATNATIFPRIVGG-Lys(Abz)
# [28] = tested on: Lys(Dnp)-ATNATX4X3PRIVGG-Lys(Abz), X4 = G, X3 = A
# [29] = tested on: Lys(Dnp)-ATNATYYPRIVGG-Lys(Abz)
# [30] = tested on: Lys(Dnp)-ATNATMSPRIVGG-Lys(Abz)
# [31] = tested on: Lys(Dnp)-ATNATTKPRIVGG-Lys(Abz)
# [32] = tested on: Lys(Dnp)-ATNATX4X3PRIVGG-Lys(Abz), X4 = S, X3 = S
# [33] = tested on: Lys(Dnp)-ATNATTRPRIVGG-Lys(Abz)
# [34] = tested on: Lys(Dnp)-ATNATX4X3PRIVGG-Lys(Abz), X4 = E, X3 = K
# [35] = tested on: Lys(Dnp)-ATNATMQPRIVGG-Lys(Abz)
# [36] = tested on: Lys(Dnp)-ATNATFGPRIVGG-Lys(Abz)
# [37] = tested on: Lys(Dnp)-ATNATENPRIVGG-Lys(Abz)
# [38] = tested on: Lys(Dnp)-ATNATEVPRIVGG-Lys(Abz)
# [39] = tested on: Lys(Dnp)-ATNATKYPRIVGG-Lys(Abz)
substance,measurement,setting,value
Human plasma purified α-thrombin,FIIa kcat/KM,[1],740 M⁻¹ s⁻¹
same,Specificity Ratio (FIIa/FXa),[1],28
same,FIIa kcat/KM,[2],3300 M⁻¹ s⁻¹
same,Specificity Ratio (FIIa/FXa),[2],18
same,FIIa kcat/KM,[3],0.00066 M⁻¹ s⁻¹
same,Functional Selectivity (Specificity*FIIa kcat/KM),[3],2.8e-07
same,Specificity Ratio (FIIa/FXa),[3],0
same,kcat/KM,[3],0.00066 M⁻¹ s⁻¹
same,FIIa kcat/KM,[4],8300 M⁻¹ s⁻¹
same,Specificity Ratio (FIIa/FXa),[4],19
same,kcat/KM,[4],8300 M⁻¹ s⁻¹
same,FIIa kcat/KM,[5],17000 M⁻¹ s⁻¹
same,Functional Selectivity (Specificity*FIIa kcat/KM),[5],2.8e+06
same,kcat/KM,[5],17000 M⁻¹ s⁻¹
same,FIIa kcat/KM,[6],11000 M⁻¹ s⁻¹
same,Functional Selectivity (Specificity*FIIa kcat/KM),[6],3.8e+06
same,kcat/KM,[6],11000 M⁻¹ s⁻¹
same,FIIa kcat/KM,[7],14000 M⁻¹ s⁻¹
same,Specificity Ratio (FIIa/FXa),[7],14
same,kcat/KM,[7],14000 M⁻¹ s⁻¹
same,FIIa kcat/KM,[8],1100 M⁻¹ s⁻¹
same,Specificity Ratio (FIIa/FXa),[8],16
same,FIIa kcat/KM,[9],0.00056 M⁻¹ s⁻¹
same,Functional Selectivity (Specificity*FIIa kcat/KM),[9],3.6e-08
same,Specificity Ratio (FIIa/FXa),[9],0
same,kcat/KM,[9],0.00056 M⁻¹ s⁻¹
same,FIIa kcat/KM,[10],1300 M⁻¹ s⁻¹
same,Specificity Ratio (FIIa/FXa),[10],95
same,kcat/KM,[10],1300 M⁻¹ s⁻¹
same,FIIa kcat/KM,[11],32000 M⁻¹ s⁻¹
same,Functional Selectivity (Specificity*FIIa kcat/KM),[11],1.4e+07
same,kcat/KM,[11],32000 M⁻¹ s⁻¹
same,kcat/KM,[12],2800 M⁻¹ s⁻¹
same,FIIa kcat/KM,[13],1200 M⁻¹ s⁻¹
same,Specificity Ratio (FIIa/FXa),[13],71
same,kcat/KM,[13],1200 M⁻¹ s⁻¹
same,FIIa kcat/KM,[14],23000 M⁻¹ s⁻¹
same,Functional Selectivity (Specificity*FIIa kcat/KM),[14],2.8e+06
same,kcat/KM,[14],23000 M⁻¹ s⁻¹
same,kcat/KM,[15],8100 M⁻¹ s⁻¹
same,FIIa kcat/KM,[16],33000 M⁻¹ s⁻¹
same,Functional Selectivity (Specificity*FIIa kcat/KM),[16],720000
same,kcat/KM,[16],33000 M⁻¹ s⁻¹
same,FIIa kcat/KM,[17],9500 M⁻¹ s⁻¹
same,Functional Selectivity (Specificity*FIIa kcat/KM),[17],1.9e+06
same,kcat/KM,[17],9500 M⁻¹ s⁻¹
same,FIIa kcat/KM,[18],9600 M⁻¹ s⁻¹
same,Specificity Ratio (FIIa/FXa),[18],15
same,kcat/KM,[18],9600 M⁻¹ s⁻¹
same,kcat/KM,[19],3900 M⁻¹ s⁻¹
same,FIIa kcat/KM,[20],5400 M⁻¹ s⁻¹
same,Specificity Ratio (FIIa/FXa),[20],13
same,Functional Selectivity (Specificity*FIIa kcat/KM),[21],1.1e+06
same,FIIa kcat/KM,[22],2700 M⁻¹ s⁻¹
same,Specificity Ratio (FIIa/FXa),[22],21
same,FIIa kcat/KM,[23],1300 M⁻¹ s⁻¹
same,Specificity Ratio (FIIa/FXa),[23],31
same,FIIa kcat/KM,[24],2600 M⁻¹ s⁻¹
same,Specificity Ratio (FIIa/FXa),[24],77
same,kcat/KM,[24],2600 M⁻¹ s⁻¹
same,FIIa kcat/KM,[25],8600 M⁻¹ s⁻¹
same,Specificity Ratio (FIIa/FXa),[25],51
same,kcat/KM,[25],8600 M⁻¹ s⁻¹
same,FIIa kcat/KM,[26],2900 M⁻¹ s⁻¹
same,Specificity Ratio (FIIa/FXa),[26],36
same,kcat/KM,[26],2900 M⁻¹ s⁻¹
same,FIIa kcat/KM,[27],13000 M⁻¹ s⁻¹
same,Functional Selectivity (Specificity*FIIa kcat/KM),[27],1.3e+06
same,kcat/KM,[27],13000 M⁻¹ s⁻¹
same,FIIa kcat/KM,[28],950 M⁻¹ s⁻¹
same,Specificity Ratio (FIIa/FXa),[28],19
same,FIIa kcat/KM,[29],3800 M⁻¹ s⁻¹
same,Specificity Ratio (FIIa/FXa),[29],79
same,kcat/KM,[29],3800 M⁻¹ s⁻¹
same,FIIa kcat/KM,[30],18000 M⁻¹ s⁻¹
same,Specificity Ratio (FIIa/FXa),[30],33
same,kcat/KM,[30],18000 M⁻¹ s⁻¹
same,FIIa kcat/KM,[31],1100 M⁻¹ s⁻¹
same,Specificity Ratio (FIIa/FXa),[31],81
same,kcat/KM,[31],1100 M⁻¹ s⁻¹
same,FIIa kcat/KM,[32],1000 M⁻¹ s⁻¹
same,Specificity Ratio (FIIa/FXa),[32],26
same,FIIa kcat/KM,[33],2300 M⁻¹ s⁻¹
same,Specificity Ratio (FIIa/FXa),[33],63
same,kcat/KM,[33],2300 M⁻¹ s⁻¹
same,FIIa kcat/KM,[34],650 M⁻¹ s⁻¹
same,Specificity Ratio (FIIa/FXa),[34],83
same,FIIa kcat/KM,[35],33000 M⁻¹ s⁻¹
same,Functional Selectivity (Specificity*FIIa kcat/KM),[35],1.1e+06
same,kcat/KM,[35],33000 M⁻¹ s⁻¹
same,FIIa kcat/KM,[36],14000 M⁻¹ s⁻¹
same,Functional Selectivity (Specificity*FIIa kcat/KM),[36],1.8e+06
same,kcat/KM,[36],14000 M⁻¹ s⁻¹
same,FIIa kcat/KM,[37],17 M⁻¹ s⁻¹
same,Functional Selectivity (Specificity*FIIa kcat/KM),[37],88
same,Specificity Ratio (FIIa/FXa),[37],5
same,kcat/KM,[37],17 M⁻¹ s⁻¹
Human plasma purified alpha-thrombin,FIIa kcat/KM,[38],200 M⁻¹ s⁻¹
same,Specificity Ratio (FIIa/FXa),[38],9
same,FIIa kcat/KM,[39],700 M⁻¹ s⁻¹
same,Specificity Ratio (FIIa/FXa),[39],19
